# Ab-14 heavy chain CDR variants: yeast mating affinities

Values reported by Li et al. 2023, doi:10.1038/s41467-023-39022-2 (FLAb copy).

The target is the same throughout: PDVDLGDISGINAS, from the HR2 region of SARS-CoV-2 spike.

Each scFv is VH, a (GGGGS)3 linker, VL, as in the parent Ab-14, and differs from it in the CDRs of the heavy chain only.
VH: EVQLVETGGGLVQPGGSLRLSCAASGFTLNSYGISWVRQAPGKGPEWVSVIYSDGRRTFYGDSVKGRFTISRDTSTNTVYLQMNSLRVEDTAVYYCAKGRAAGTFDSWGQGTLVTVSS
VL: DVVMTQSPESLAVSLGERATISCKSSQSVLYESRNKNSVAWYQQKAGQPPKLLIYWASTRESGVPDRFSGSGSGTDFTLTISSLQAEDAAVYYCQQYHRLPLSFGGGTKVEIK

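The variants were designed computationally from a first round of random CDR variants and then made and measured. Several design methods are mixed in this list. The scFvs were displayed on barcoded MATa yeast, the peptide on MATalpha yeast. Binding brings cells together so that they mate, and sequencing counts the barcode pairs among the diploids. Read counts were normalised to the haploid input and turned into Kd by a linear fit to BCL2-family pairs of known affinity, for each replicate. Mating was done six times.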

Each variant is given by its three heavy chain CDRs, as the data file delimits them; those of the parent are GFTLNSYGIS, VIYSDGRRTFYGDSVK, GRAAGTFDS.
Variants here have more than six changes.
The Kd shown is the geometric mean over detected replicates; a lower Kd is a better binder.
A pair that was not seen in any replicate is written "no signal"; this usually means weak binding, but a binder can also be missed.
The parent sequence was in this pool as ten entries: three were never detected, three once, and four in most replicates, with averages from 2.2 nM to 240 nM.
In the paper, a design with two or fewer of six values counts as a poor binder.
Nonspecific signal, from three strains lacking the peptide, appeared in 1% of pairings of all heavy chain designs, centred on 120 nM (5% of these signals below 7.0 nM); values are not corrected for it. The control count says in how many pairings with the empty strains this scFv gave a signal.
A sequence measured in both rounds can read differently, since the two assays cover different ranges.

* GFNLNEVGIS, VIYADGLRSAYVDAVK, GGVVGVDFV = no signal (0 of 6 replicates; controls 0 of 18)
* GFSLDDYGIS, VIYADGMRKAYVDEVK, GYVAGTFDI = 730 pM (6 of 6 replicates; controls 1 of 18)
* GFDLNEYGIS, VIYADGSRQAYADSVK, GENAGTFDV = 630 pM (6 of 6 replicates; controls 0 of 18)
* GFDLDEYGIS, VIYADGQRTAYADSVK, GTVAGTFDV = 500 pM (2 of 6 replicates; controls 0 of 18)
* GFDLNEYGIS, VIYADGMRTAYVDSVK, GNNAGTFDI = 670 pM (6 of 6 replicates; controls 0 of 18)
* GFDLNEYGIS, VIYADGSRKAYADSVK, GTNAGTFDV = 320 pM (6 of 6 replicates; controls 2 of 18)
* GFDLNEYGIS, VIYADGQRTAYADSVK, GNTAGTFDL = 21 nM (2 of 6 replicates; controls 0 of 18)
* GFDLDEYGIS, VIYADGVRTAYVDSVK, GNNAGTFDV = 170 pM (6 of 6 replicates; controls 0 of 18)
* GFDLNEYGIS, VIYADGMRTFYSDSVK, GEVAGTFVS = 1.6 nM (6 of 6 replicates; controls 0 of 18)
* GFDLDEYGIS, VIYADGRRTFYSDSVK, GEAAGTFDM = 130 pM (6 of 6 replicates; controls 0 of 18)
* GFDLEDYGIS, VIYADGQRTFYSDSVK, GEIAGTFDS = 640 pM (6 of 6 replicates; controls 0 of 18)
* GFTLTEYGIQ, VIYSDGQRTFYDNSVK, GKAAGTFDS = no signal (0 of 6 replicates; controls 0 of 18)
* GFELDEYGIS, VIYADGARTAYVDNVK, GDAVGIFHV = no signal (0 of 6 replicates; controls 0 of 18)
* GFNLNEYGIS, VIYADGMRTFYADSVK, GETAGTFDV = 290 pM (6 of 6 replicates; controls 0 of 18)
* GFTIDEYGIS, VIYADGQRVAYNEKVK, GMLAGTFDQ = 750 pM (6 of 6 replicates; controls 1 of 18)
* GFDLNEYGIS, VIYADGVRTFYSDSVK, GEVAGTFDQ = 360 pM (6 of 6 replicates; controls 0 of 18)
* GFTLNEYGIV, VIYSDKRRTHYTDSVK, GRFANTFDS = no signal (0 of 6 replicates; controls 0 of 18)
* GFDLNEYGIS, VIYADGMRTFYSDSVK, GTVAGTFDS = 220 pM (6 of 6 replicates; controls 0 of 18)
* GFDLNDYGIS, VIYADGMRTAYIDSVK, GEVAGTFDS = 390 pM (6 of 6 replicates; controls 0 of 18)
* GFNLNDYGIS, VIYADGHRRSYVDNVK, GHLAGTFFM = 1.9 µM (1 of 6 replicates; controls 0 of 18)
* GFNLNEYGIS, VIYADGRRTFYSNSVK, GETAGTFDV = 770 pM (6 of 6 replicates; controls 0 of 18)
* GFDLNEYGIS, VIYADGMRVRYVENVK, GMGQTSGVT = no signal (0 of 6 replicates; controls 0 of 18)
* GFSLEEYGIS, VIYADGKRDVYADSVK, GSGSGWFDI = no signal (0 of 6 replicates; controls 0 of 18)
* GFGLGEYGIS, VIYADGMRAAYVTSVK, GSEAGTFFT = no signal (0 of 6 replicates; controls 1 of 18)
* GFDLDEYGIS, VIYADGSRTAYVDSVK, GNVAGTFDV = 670 pM (6 of 6 replicates; controls 0 of 18)
* GFHLDEFGIS, VIYADGLRSSYADDVK, GEMTGGFVV = no signal (0 of 6 replicates; controls 0 of 18)
* GFDLNEYGIS, VIYADGSRTVYADSVK, GNVAGTFDI = 330 pM (6 of 6 replicates; controls 0 of 18)
* GFDLNEYGIS, VIYADGRRTFYIDSVK, GEIAGTFIM = 1.9 nM (5 of 6 replicates; controls 0 of 18)
* GFDLDEYGIS, VIYADGQRTAYADSVK, GQNAGTFDI = 160 pM (6 of 6 replicates; controls 0 of 18)
* GFDLNEYGIS, VIYADGQRTYYADSVK, GNVAGTFDI = 890 pM (6 of 6 replicates; controls 0 of 18)
* GFDLNEYGIS, VIYADGRRTFYTDDVK, GNVAGTFDL = 130 pM (6 of 6 replicates; controls 0 of 18)
* GFDLNEYGIS, VIYADGVRTAYTDSVK, GNVAGTFDQ = 410 pM (6 of 6 replicates; controls 0 of 18)
* GFDLNEYGIS, VIYADGRRTAYADSVK, GEVAGTFNV = 840 pM (6 of 6 replicates; controls 0 of 18)
* GFDLNEYGIS, VIYADGRRTFYADNVK, GENAGTFIV = no signal (0 of 6 replicates; controls 0 of 18)
* GFDLNEYGIS, VIYADGMRTAYADSVK, GKNAGTFDI = 200 pM (6 of 6 replicates; controls 0 of 18)
* GFDLNEYGIS, VIYADGKRCKYTDNVK, GSLTGTAVT = no signal (0 of 6 replicates; controls 0 of 18)
* GFDLNEYGIS, VIYADGMRTFYADNVK, GEVAGTFIV = 110 nM (3 of 6 replicates; controls 0 of 18)
* GFDLNDYGIS, VIYADGRRTAYIDSVK, GEVAGTFDN = 230 pM (6 of 6 replicates; controls 0 of 18)
* GFDLNEYGIS, VIYADGRRTFYADSVK, GETAGTFFS = 400 pM (6 of 6 replicates; controls 0 of 18)
* GFNINEYGVS, VIYADGMRTYYDDKVK, GSNGVMLLD = no signal (0 of 6 replicates; controls 0 of 18)
* GFDLNEYGIS, VIYADGRRTYYIDSVK, GETAGTFDV = 570 pM (6 of 6 replicates; controls 0 of 18)
* GFDLNEYGIS, VIYADGRRTAYSDSVK, GNVAGTFDQ = 69 pM (6 of 6 replicates; controls 1 of 18)
* GFDLNEYGIS, VIYADGVRTAYADKVK, GGNAGTFDV = 270 pM (6 of 6 replicates; controls 0 of 18)
* GFSLEEFGIS, VIYADGSRRAYAQDVK, GGTAGGFVV = no signal (0 of 6 replicates; controls 0 of 18)
* GFDLNEYGIS, VIYADGMRTAYSDNVK, GNVAGTFDQ = 1.5 nM (6 of 6 replicates; controls 1 of 18)